Source: patent US20220281821A1, “INDAZOLE COMPOUNDS AND THEIR PHARMACEUTICAL COMPOSITIONS” (Jinan University, priority 2019, published 2022)

Chains of the proteins cited; added tags and fusions are not shown. Residues count along the entry.
UniProt Q16620, 32-822: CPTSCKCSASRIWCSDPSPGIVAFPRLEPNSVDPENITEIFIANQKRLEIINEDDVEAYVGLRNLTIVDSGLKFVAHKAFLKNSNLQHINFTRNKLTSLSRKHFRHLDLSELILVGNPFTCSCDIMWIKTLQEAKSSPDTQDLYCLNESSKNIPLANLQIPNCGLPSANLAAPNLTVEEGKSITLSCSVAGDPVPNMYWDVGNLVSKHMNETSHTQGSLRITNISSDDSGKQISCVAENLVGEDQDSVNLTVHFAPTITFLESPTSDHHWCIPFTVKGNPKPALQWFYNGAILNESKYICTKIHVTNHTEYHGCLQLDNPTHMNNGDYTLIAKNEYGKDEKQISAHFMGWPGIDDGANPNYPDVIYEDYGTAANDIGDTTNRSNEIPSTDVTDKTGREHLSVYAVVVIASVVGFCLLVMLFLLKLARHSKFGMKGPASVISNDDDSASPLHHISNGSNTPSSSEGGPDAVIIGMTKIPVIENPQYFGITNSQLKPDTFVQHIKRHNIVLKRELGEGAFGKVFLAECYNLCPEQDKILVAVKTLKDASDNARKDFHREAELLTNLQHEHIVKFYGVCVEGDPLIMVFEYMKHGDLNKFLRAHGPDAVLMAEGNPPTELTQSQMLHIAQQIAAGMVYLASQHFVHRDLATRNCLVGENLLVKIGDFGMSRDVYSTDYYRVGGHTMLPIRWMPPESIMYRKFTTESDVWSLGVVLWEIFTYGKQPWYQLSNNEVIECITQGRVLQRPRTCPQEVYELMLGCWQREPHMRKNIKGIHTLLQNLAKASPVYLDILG
UniProt Q16620, 538-822 limits assumed: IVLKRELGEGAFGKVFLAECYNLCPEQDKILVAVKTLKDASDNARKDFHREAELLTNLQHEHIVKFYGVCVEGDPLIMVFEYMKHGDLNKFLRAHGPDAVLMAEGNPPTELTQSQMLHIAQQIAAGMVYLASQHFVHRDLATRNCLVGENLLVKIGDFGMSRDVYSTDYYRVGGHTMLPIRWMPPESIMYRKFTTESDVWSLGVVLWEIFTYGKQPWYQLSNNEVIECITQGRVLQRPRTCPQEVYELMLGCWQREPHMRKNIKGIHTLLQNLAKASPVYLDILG

Assays:
TRKB = molecular target: T1, TRKB (Homo sapiens, UniProt Q16620); assay: Z′-LYTE kinase activity assay, TRKB; type: biochemical
T1 construct: purchased life technologies PV3616
Text: Kinase activity assay: Z′-LYTE™ technology (detection by fluorescence, enzyme-conjugated format, based on the difference in sensitivity of phosphorylated and non-phosphorylated peptides to proteolytic cleavage) was applied, and using the principle of fluorescence resonance energy transfer (FRET), a Z′-LYTE™ FRET peptide substrate (Z′-LYTE™ Tyrosine 1 Peptide Substrate, Invitrogen, PV3190), and a secondary reaction were used to detect the inhibitory activity of the compounds on TRKs (TRK1, TRK2, TRK3) (life technologies, PV3144, PV3616, PV3617).
Enzymatic reaction: In a 384-well plate, 5 μL of an enzyme-substrate system (50 mM HEPES pH 7.5, 0.01% BRIJ-35, 10 mM MgCl2, 1 mM EGTA, 2 μM Tyr 01 Peptide Substrate) was added and 5 nL of compound (concentration gradient) was transferred thereto by using the echo520 ultramicro liquid pipetting system. […] After shaking and mixing, centrifuging was performed. A reaction was carried out at 30° C. in the dark for 1.5 hours.
The data were analyzed as follows:
Phosphorylation ratio=1−{(emission ratio×F100%−C100%)/[C0%−C100%+emission ratio×(F100%−F0%)]}×100;
Inhibition rate=100×(1−compound phosphorylation ratio/negative control phosphorylation ratio).
IC50 values were calculated by using GraphPad Prism 5.0 software.

BaF3-ETV6-NTRK2 = molecular target: T2, BaF3-ETV6-NTRK2 (Homo sapiens, UniProt Q16620); assay: Cell proliferation inhibition (CCK-8), BaF3-ETV6-NTRK2 stable strain; type: cell-based, mouse; conditions: read-out: ETV6-NTRK2 cell activity IC50, BaF3-ETV6-NTRK2, 72 hours
T2 construct: fused on or other part: P41212 (Transcription factor ETV6)
Method: The brief steps of stable strain construction are as follows: construct a pCDNA3.1(+) plasmid vector carrying genes such as CD74-NTRK1, ETV6-NTRK2 and ETV6-NTRK3; the plasmid was electroporated into Ba/F3 cells using the Amaxa® Cell Line Nucleofector® Kit V; 48 hours after electroporated, G418 with a final concentration of 1000 μg/ml was added for screening for two weeks, and then IL3 was removed, and continued screening to obtain polyclonal stable strains; then single clones were selected by a limiting dilution method. The stable strains were then identified using positive drugs, WB and gene sequencing; and the monoclonal clones that were identified as completely correct may be used for the study of cell proliferation inhibitory activity of inhibitors.
Cell proliferation inhibition activity study: the cells in the logarithmic growth phase were seeded into 96-well plates at 8000-12000 cells/well, and inhibitors at different concentrations (0-10 μM) were added the next day, and incubation was continued for 72 hours; then 10 μL of CCK-8 reagent was added to each well, and the incubation was continued for 1-3 hours; and then use a super microplate reader to measure their absorbance values at 450 nm and 650 nm. The half-inhibition concentration (IC50) was calculated using GraphPad Prism 8.0.0.

Row | Compound | IC50 (TRKB; Z′-LYTE, ATP 25 uM, read-out: TRKB IC50) | IC50 (BaF3-ETV6-NTRK2) | IC50 (TRKB)
1 | C[C@H](Nc1ccc2[nH]nc(/C=C/c3ccccn3)c2c1)c1cc(F)cc(F)c1 [DYX-244-2, (S,E)-N-(1-(3,5-difluorophenyl)ethyl)-3-(2-(pyridin-2-yl)vinyl)-1H-indazol-5-amine] | 22.1 nM | 230 nM | 
2 | C[C@@H](Nc1ccc2[nH]nc(/C=C/c3ccccn3)c2c1)c1cc(F)cc(F)c1 [DYX-244-1, (R,E)-N-(1-(3,5-difluorophenyl)ethyl)-3-(2-(pyridin-2-yl)vinyl)-1H-indazol-5-amine] |  | 20.3 nM | 4.4 nM

Read-outs that look alike come from different tables or passages of the source.
